Among the data in BindingDB's records for doi:10.1038/305140a0 (College of France, 1983) are Ki values, retold here.

The chains behind the UniProt entries cited, without tags or fusion partners.
UniProt P19327, whole entry: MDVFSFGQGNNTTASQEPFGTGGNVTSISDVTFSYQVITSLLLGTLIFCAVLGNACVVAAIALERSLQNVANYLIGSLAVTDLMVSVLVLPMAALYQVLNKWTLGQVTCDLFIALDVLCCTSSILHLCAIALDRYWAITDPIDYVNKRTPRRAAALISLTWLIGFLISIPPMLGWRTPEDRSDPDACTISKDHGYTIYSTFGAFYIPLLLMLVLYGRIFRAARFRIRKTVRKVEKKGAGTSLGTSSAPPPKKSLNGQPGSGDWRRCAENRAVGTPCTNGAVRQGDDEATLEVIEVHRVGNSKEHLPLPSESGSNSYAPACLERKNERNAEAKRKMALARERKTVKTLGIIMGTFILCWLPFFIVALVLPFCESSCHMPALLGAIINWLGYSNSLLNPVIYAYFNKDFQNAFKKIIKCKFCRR

The target of the test is 5-hydroxytryptamine receptor 1A (Rattus norvegicus, UniProt P19327).

What is called Ki is a dissociation constant, usually derived from enzyme kinetics or from competition with a known ligand. A high value points to lower affinity. In turn, `NCC(O)c1ccc(O)c(O)c1` (stereo not drawn) [Noradrenaline,(+)] came in with a Ki of over 10000 nM.
For the molecule `COc1ccc2[nH]cc(C3=CCNCC3)c2c1` [5-Methoxy-3-(1,2,3,6-tetrahydro-pyridin-4-yl)-1H-indole(RU-24969)], the affinity corresponds to a Ki of 912 nM.
